Assay results published in patent publication EP4553077A1 (Kinoteck Therapeutics Co., Ltd, priority 2022, dated 2024).

Sequences of proteins named here, by UniProt entry; tags and fusion partners are left off. A change or cut given only in a name is not applied to a line headed by its entry. Residues count along the entry.
UniProt P21802, 481-770 limits assumed: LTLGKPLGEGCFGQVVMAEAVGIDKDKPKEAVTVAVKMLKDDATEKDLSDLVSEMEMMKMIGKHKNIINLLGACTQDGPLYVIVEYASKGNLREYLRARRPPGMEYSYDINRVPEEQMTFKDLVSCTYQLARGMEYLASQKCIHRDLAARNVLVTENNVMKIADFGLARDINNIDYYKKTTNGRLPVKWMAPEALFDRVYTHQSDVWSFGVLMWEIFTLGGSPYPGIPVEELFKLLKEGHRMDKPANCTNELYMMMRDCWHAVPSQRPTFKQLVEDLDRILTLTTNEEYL
UniProt P41212: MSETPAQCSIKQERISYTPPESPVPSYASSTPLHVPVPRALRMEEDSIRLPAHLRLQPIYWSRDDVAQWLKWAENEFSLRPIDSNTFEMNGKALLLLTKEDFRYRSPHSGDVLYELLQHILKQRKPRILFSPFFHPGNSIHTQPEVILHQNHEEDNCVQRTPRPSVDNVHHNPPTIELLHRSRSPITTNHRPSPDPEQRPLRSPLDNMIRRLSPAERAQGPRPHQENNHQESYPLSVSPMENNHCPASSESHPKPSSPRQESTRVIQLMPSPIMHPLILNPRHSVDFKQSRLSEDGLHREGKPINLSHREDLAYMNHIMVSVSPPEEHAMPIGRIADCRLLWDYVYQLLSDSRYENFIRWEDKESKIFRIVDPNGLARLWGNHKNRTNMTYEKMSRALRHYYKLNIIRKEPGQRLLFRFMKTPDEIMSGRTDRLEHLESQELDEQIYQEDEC

Target: Ba/F3-TEL-FGFR2 (Homo sapiens, UniProt P21802+P41212)
Experiment: Cell viability (proliferation inhibition) of Ba/F3 cells, CellTiter Glo
Conditions: read-out: Ba/F3 cell FGFR2 (IC50 nM), 72 h

N- (4- (4-amino-7-methyl-5- (6- (1-oxotetrahydro-1 λ^6-thiophene-1-ylidene) amino) pyridin-3-yl) -7H-pyrrolo [2,3-d] pyrimidin-6-yl) phenyl) methacrylamide [Compound 29]
IC50: 1210 nM
